ChEMBL document CHEMBL4052703, “Cyclic tetrapeptide HDAC inhibitors as potential therapeutics for spinal muscular atrophy: Screening with iPSC-derived neuronal cells” (Bioorg Med Chem Lett, 2017)

Species: Homo sapiens
Experiment: Increase in SMN2 mRNA expression in induced pluripotent stem cell derived from human GM03813 cells isolated from SMA patient homozygous for deletion of exons 7 and 8 in SMN1 gene and containing 3 SMN2 gene copies at 1 uM by PCR assay relative to untreated control

**Q.** How did the fold change (FC) turn out when `CCC(=O)CCCCC[C@@H]1NC(=O)[C@H]2CCCCN2C(=O)[C@H]([C@@H](C)CC)NC(=O)[C@H](Cc2cn(OC)c3ccccc23)NC1=O` was run?
**A.** 1 to 1.6
